Assay results: US10316100B2, “Treating basal-like genotype cancers” (The UAB Research Foundation, priority 2009, dated 2019)

Chains of the proteins cited; added tags and fusions are not shown. Residues count along the entry.
UniProt Q14790, 385-479 limits assumed: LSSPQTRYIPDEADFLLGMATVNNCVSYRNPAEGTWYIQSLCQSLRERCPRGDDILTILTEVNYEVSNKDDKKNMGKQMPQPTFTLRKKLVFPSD
UniProt Q14790, 217-374 limits assumed: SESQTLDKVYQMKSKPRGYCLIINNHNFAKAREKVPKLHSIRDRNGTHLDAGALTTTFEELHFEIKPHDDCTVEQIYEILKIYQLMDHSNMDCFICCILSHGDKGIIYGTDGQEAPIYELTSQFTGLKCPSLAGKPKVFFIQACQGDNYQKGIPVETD

Target: T1, caspase-8 (Homo sapiens, UniProt Q14790)
T1 construct: purchased EMD Biosciences, Inc (San Diego, Calif.)
Assay: Assay of caspase activity in vitro (Ac-IETD-AMC)
Assay type: biochemical
Conditions: active caspase-8, Ac-IETD-AMC
Experimental: Fluorometric assays were conducted in 96-well clear bottom plates, and all measurements were carried out in triplicate wells. 100 μl of assay buffer (10 mM HEPES pH 7.0, 50 mM NaCl, 2 mM MgCl2, 5 mM EDTA, and 1 mM DTT) was added. Active caspase-8 and peptide substrates (Ac-IETD-AMC) were added to each well to a final concentration of 100 ng/μl. Co-immunoprecipitation eluted fraction was added to start the reaction. Background fluorescence was measured in wells containing assay buffer, substrate, and lysis buffer without the cell lysates. Assay plates were incubated at 37° C. for 1 hour. Fluorescence was measured on a fluorescence plate reader (Bio-Tek; Winooski, Vt.) set at 355-nm excitation and 440-nm emission.
As cleavage of DDX3 was inhibited in the induced resistant cells, it promoted a study to determine the step in apoptosis signaling in which DDX3 inhibits DR5-mediated apoptosis. The DDX3/cIAP1 complex was predicted to inhibit caspase-8 activation; therefore, the activation of caspase-8 at the DR5-DDX3-cIAP1 complex as one of the first detectable events after receptor triggering was examined. To assess the effect of the DR5-DDX3-cIAP1 complex on caspase-8 activation, the caspase activity was measured using the fluorogenic substrate, Ac-IETD-AMC, incubated with active caspase-8 and DDX3 co-IP eluted fractions from parental sensitive or induced resistant cells. […]

## purified cIAP1: purified cIAP1 protein, inhibitor of apoptosis
  caspase-8 protease activity: suppressed caspase-8 protease activity completely
